From ChEMBL document CHEMBL1157711, “Recent advances in the discovery of competitive protein tyrosine phosphatase 1B inhibitors for the treatment of diabetes, obesity, and cancer” (J Med Chem, 2010)

Target: T1, Tyrosine-protein phosphatase non-receptor type 1 (Homo sapiens, UniProt P18031)
T1 sequence (P18031 whole entry): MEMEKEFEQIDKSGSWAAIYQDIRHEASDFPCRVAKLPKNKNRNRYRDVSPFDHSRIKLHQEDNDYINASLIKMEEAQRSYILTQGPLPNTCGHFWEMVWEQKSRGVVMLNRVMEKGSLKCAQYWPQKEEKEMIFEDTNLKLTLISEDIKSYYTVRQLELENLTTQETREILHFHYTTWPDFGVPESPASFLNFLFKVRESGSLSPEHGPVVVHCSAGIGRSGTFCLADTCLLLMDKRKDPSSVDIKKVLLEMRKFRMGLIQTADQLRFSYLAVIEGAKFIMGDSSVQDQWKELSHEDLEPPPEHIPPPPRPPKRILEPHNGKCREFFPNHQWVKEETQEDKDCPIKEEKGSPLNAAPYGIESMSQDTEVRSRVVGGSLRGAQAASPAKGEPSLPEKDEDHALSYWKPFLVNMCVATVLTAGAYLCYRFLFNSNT
Test: Inhibition of PTP1B

- Ki: 18 nM
Compound: CCc1cc(C[C@H](NC(C)=O)C(=O)NCCCCOc2cccc(O)c2C(=O)OC)ccc1N(C(=O)C(=O)O)c1ccccc1C(=O)O
